The results in this text go back to article PMC6965684, “Characterization of binding, functional activity, and contractile responses of the selective 5‐HT1F receptor agonist lasmiditan” (British Journal of Pharmacology, 2019).

Chains of the proteins cited; added tags and fusions are not shown.
UniProt P08908, whole entry: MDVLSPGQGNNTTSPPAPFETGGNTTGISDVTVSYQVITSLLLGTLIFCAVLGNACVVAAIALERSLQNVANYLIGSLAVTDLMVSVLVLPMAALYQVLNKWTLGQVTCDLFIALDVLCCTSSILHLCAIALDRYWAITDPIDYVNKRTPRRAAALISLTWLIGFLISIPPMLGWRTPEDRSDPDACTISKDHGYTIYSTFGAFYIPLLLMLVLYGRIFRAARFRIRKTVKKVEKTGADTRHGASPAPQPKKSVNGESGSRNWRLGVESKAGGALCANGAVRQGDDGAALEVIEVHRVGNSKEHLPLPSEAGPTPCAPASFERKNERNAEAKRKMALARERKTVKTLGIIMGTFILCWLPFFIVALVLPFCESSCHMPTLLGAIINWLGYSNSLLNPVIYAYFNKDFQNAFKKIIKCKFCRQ

Test [1] has as its target T1, 5-HT1A receptor (Homo sapiens, UniProt P08908).
T1 construct: gene HTR1A; full-length human recombinant receptor in CHO-K1 cells (Ogeda); crude membranes
As to the kind of experiment: biochemical. Format: CHO-K1 membranes. On the set-up: radioligand competition binding on cell membranes, filtration and TopCount scintillation counting. The settings on record: radioligand displacement; read-out: 5‐HT1A / pIC50 (converted). As to the method: Competition binding was performed in duplicate in the wells of a 96‐well plate containing binding buffer (optimized for each receptor), cell membrane extracts (approximately 20,000 cells distributed in the 96‐well plate), radiotracer, and test agonist. Non‐specific binding was determined by co‐incubation with 200‐fold excess of competitor. Cells were incubated and exposed to varying concentrations (1 pM to 10 μM) of a range of displacer agonists (see below). The samples were incubated in a final volume of 0.1 ml and then filtered over Unifilter plates (Perkin Elmer, Massachusetts, USA) pretreated for 2 hr to limit tracer non‐specific binding. Filters were washed five times with 0.5 ml of ice‐cold washing buffer (tris 50 mM pH 7.4) and 50 μl of Microscint 20 (Perkin Elmer) were added to each filter. The plates were incubated 15 min at room temperature on an orbital shaker and then counted with a TopCount™ (Perkin Elmer) for 1 min per well. […] Additionally, the reference values obtained were compared to historical values obtained from the same receptor and used to validate the experimental session. […] For the new assays developed in this study (i.e., 5‐ht1E receptor), the two independent pIC50 determined must be concordant with a 1 log unit interval for the assays to be validated.

Test [2] concerns the target T1, 5-HT1A receptor. The test is described as follows: radioligand competition, CHO-K1 membranes. It is filed as binding. The settings on record: read-out: 5-HT1A / pKi (converted). The text has this: radioligand competition, CHO-K1 membranes on 5-HT1A receptor
Test [3] deals with T1, 5-HT1A receptor. The test is described as follows: cell-based. Further details: species or system CHO-K1; cAMP HTRF agonist assay, Gi coupled receptors, inhibition of stimulated cAMP. The note with it: cAMP. On the procedure: Concentration–response curves were performed in parallel with the agonists. […] After addition of the lysis buffer and 1‐hr incubation, cAMP concentrations were estimated according to the manufacturer specification with the HTRF kit (Cisbio International, Codelet, France). In brief, increasing concentrations of agonists were added to stably transfected cells in buffer in an Optiplate (PerkinElmer Life Sciences, Massachusetts, USA). The plates were incubated, and cells were then lysed by the addition of HTRF reagents (cAMP‐Cryptate and anti‐cAMP‐d2 reagents) and diluted in lysis buffer, followed by incubation at room temperature. […] Additionally, the reference values obtained were compared to historical values obtained from the same receptor and used to validate the experimental session. […] For the new assays developed in this study (i.e., 5‐ht1E receptor), the two independent pIC50 determined must be concordant with a 1 log unit interval for the assays to be validated.

Test [4] deals with T1, 5-HT1A receptor. As to the kind of experiment: biochemical. On the set-up: GTPγS agonist functional assay. It is filed as CHO-K1 membranes. The settings on record: GTPγS. From the text:
Additionally, the reference values obtained were compared to historical values obtained from the same receptor and used to validate the experimental session. […] For the new assays developed in this study (i.e., 5‐ht1E receptor), the two independent pIC50 determined must be concordant with a 1 log unit interval for the assays to be validated.

With `CNS(=O)(=O)Cc1ccc2[nH]cc(CCN(C)C)c2c1` [Sumatriptan succinate], in test [1], the IC50 is 234 nM. For the same compound, in test [2], the Ki was 72.4 nM. Moreover, the EC50 in test [3] and in test [4] was > 10000 nM throughout.
